Article PMC10005222, “Development of a Novel Apigenin Dosage form as a Substitute for the Modern Triple Antithrombotic Regimen” (Molecules, 2023)

Experiment: Serum pharmacokinetics after oral administration in C57BL/6J mice
Format: in vivo
Conditions: AUC0−t hybrid formulation / AUC0−t native apigenin
Procedure: For the detection of the conjugate, the EVOQ Elite ER TQ (Bruker) mass spectrometer was operated in negative ionization electrospray mode (ESI) under multiple reaction monitoring (MRM). Using MRM builder, a feature of MS workstation Bruker software, the optimal MRM transitions for monitoring 4′-DHA-apigenin were m/z 579.3 → 267.9 and 579.3 → 403. Optimum ESI conditions were determined as follows: spray voltage, 4500 V; heated probe gas flow, 50 units; heated probe temperature 350℃; cone gas flow, 20 units; cone temperature, 200 °C; nebulizer gas flow, 40 units. Total control of LC and MS, as well as data acquisition, were performed with MSWS software, Version 8.2.1 (Bruker). For the pharmacokinetic studies, a Xevo-G2-XS-QtoF mass spectrometer, coupled to a Waters UPLC I-Class Binary Solvent Manager (Waters Corp., Milford, MA, USA) was used. The mobile phases were composed of water (LC-MS grade) with formic acid 0.1% (A), and acetonitrile (LC-MS grade) with formic acid 0.1% (B). […]
The Phoenix^TM (www.certara.com)®. software was used for data analysis using non-compartmental PK analysis (NCA). […] To calculate the PK parameters and their standard errors (SE), the mean concentration curve is calculated and used in conjunction with the available subject information. […]

`CC/C=C\C/C=C\C/C=C\C/C=C\C/C=C\C/C=C\CCC(=O)Oc1ccc(-c2cc(=O)c3c(O)cc(O)cc3o2)cc1` [4′-DHA-apigenin hybrid, 4′-DHA-apigenin] gave a Relative bioavailability of 262%.
